Key:
[1] = target: HsNMT1 (Homo sapiens, UniProt P30419); assay: HsNMT1 IC50 fluorescence-based assay (detection of CoA); assay type: biochemical; conditions: read-out: HsNMT1 IC50
[2] = system: SU-DHL-10 cell line; assay: Cell cytotoxicity in SU-DHL-10 cell line (CTG, 72 h); conditions: read-out: SU-DHL-10 IC50; 72 h treatment

By UniProt entry, the sequences of proteins in these tests, tags left out.
UniProt P30419, whole entry: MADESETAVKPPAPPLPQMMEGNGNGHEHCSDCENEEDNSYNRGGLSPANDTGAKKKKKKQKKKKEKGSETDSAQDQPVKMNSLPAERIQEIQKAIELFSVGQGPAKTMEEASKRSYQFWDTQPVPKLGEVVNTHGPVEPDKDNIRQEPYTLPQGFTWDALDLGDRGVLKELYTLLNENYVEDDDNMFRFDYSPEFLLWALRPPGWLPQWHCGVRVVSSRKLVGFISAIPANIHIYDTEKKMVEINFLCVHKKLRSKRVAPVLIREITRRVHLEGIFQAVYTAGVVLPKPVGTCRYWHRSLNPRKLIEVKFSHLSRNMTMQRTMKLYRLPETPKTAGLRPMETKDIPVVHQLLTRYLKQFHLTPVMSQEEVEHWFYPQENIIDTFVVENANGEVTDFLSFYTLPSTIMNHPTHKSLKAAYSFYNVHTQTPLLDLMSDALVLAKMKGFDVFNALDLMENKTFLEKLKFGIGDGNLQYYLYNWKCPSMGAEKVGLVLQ

IC50 [1]: 2 nM
Compound: CNCc1cnc2ccc(-c3ccc(F)c(F)c3OCCc3c(C(O)C(C)C)nn(C)c3C)cn12 (centres unmarked)
IC50 [2]: 1 nM

Source: patent US20260144890A1, “ANTIBODY DRUG CONJUGATE COMPRISING NMT INHIBITOR CONJUGATED TO AN ANTIBODY” (MyricX Pharma Limited, priority 2024, published 2026)
